From ChEMBL document CHEMBL4196131 (J Med Chem, 2018)

The chains behind the UniProt entries cited, without tags or fusion partners.
UniProt Q92731, whole entry: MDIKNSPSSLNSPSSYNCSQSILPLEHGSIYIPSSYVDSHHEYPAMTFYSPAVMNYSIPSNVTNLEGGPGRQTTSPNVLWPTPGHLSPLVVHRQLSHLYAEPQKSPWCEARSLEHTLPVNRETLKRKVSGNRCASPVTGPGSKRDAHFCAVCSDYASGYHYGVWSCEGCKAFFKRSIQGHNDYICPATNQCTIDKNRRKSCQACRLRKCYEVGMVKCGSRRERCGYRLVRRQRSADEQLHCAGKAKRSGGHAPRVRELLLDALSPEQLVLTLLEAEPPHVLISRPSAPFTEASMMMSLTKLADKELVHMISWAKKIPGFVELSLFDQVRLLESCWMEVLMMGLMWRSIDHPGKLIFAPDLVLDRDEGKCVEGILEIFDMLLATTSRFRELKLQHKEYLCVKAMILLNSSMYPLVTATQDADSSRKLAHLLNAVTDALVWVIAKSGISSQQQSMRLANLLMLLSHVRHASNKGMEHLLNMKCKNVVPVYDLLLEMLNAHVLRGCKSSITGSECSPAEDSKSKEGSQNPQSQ
UniProt P03372, whole entry: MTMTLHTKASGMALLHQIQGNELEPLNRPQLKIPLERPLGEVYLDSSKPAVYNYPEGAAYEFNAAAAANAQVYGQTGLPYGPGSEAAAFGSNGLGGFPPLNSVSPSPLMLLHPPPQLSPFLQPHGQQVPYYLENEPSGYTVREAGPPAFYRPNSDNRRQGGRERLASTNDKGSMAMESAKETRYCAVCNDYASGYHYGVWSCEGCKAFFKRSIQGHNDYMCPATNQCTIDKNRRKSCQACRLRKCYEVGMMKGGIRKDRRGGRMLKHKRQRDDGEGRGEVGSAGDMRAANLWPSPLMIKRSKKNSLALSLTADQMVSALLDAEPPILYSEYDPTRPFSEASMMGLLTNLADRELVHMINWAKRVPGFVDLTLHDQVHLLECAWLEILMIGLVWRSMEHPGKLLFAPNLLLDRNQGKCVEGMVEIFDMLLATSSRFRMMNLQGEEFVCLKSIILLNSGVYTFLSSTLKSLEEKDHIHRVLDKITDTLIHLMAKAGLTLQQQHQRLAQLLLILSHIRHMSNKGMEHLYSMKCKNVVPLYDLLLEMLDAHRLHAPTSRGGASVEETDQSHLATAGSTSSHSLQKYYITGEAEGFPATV

Experiments:
Type in all cases: cell-based
[1] = Inhibition of NFkappaB in mouse RAW 264.7 cells assessed as reduction in LPS induced NO production after 24 hrs by Griess assay; conditions: RAW264.7, 24 h
Estrogen receptor beta = Estrogen receptor beta (Homo sapiens, UniProt Q92731); test: Agonist activity at human ERbeta expressed in HEK293T cells after 24 hrs by ERE-based dual luciferase reporter gene assay
Estrogen receptor [2] = target: T1, Estrogen receptor (Homo sapiens, UniProt P03372); test: Antagonist activity at human ERalpha expressed in HEK293T cells after 24 hrs by ERE-based dual luciferase reporter gene assay relative to E2
Estrogen receptor [3] = target: T1, Estrogen receptor; test: Agonist activity at human ERalpha expressed in HEK293T cells after 24 hrs by ERE-based dual luciferase reporter gene assay relative to E2

## O=S(=O)(Oc1ccc(O)cc1)C1CC2OC1C(c1ccc(/C=C/c3cc(O)cc(O)c3)cc1)=C2c1ccc(O)cc1 (centres undefined)
[1]
  IC50: 15.5 µM

## COc1cc(/C=C/c2cccc(OS(=O)(=O)C3CC4OC3C(c3ccc(O)cc3)=C4c3ccc(O)cc3)c2)cc(OC)c1 (centres undefined)
Estrogen receptor beta
  EC50: 0.139 µM

## O=S(=O)(Oc1ccccc1)[C@H]1C[C@@H]2O[C@@H]1C(c1ccc(O)cc1)=C2c1ccc(O)cc1 (relative stereo)
Estrogen receptor [2]
  Efficacy: 69%
Estrogen receptor [3]
  Efficacy: 58%
